# This is a selection; strong and weak results do not stand in their true shares. Records with an inconclusive call do not appear. The source made the active and inactive calls. Calls follow the shape of the dose curve; as a rule, active = well fitted inhibition curve with a large enough effect; inconclusive = small, poorly fitted or top-dose-only effect, or another doubt; inactive = no such curve, though single readings can be large or run the other way.
# Target: DNA polymerase beta (Homo sapiens) (UniProt P06746)
# Experiment: qHTS Assay for Inhibitors of DNA Polymerase Beta
# Conditions: Pol beta primer extension/strand displacement, fluorescence kinetic; series mostly up to 114 µM; activity change, negative = inhibition: at the top concentration
# Excerpt: The base excision repair system in human cells is a target for therapeutic modulation of the response to irradiation treatment and DNA-damaging drugs. A key enzyme in this system is the bi-functional DNA polymerase known as DNA polymerase Beta (Pol Beta). The following is a homogeneous kinetic assay to study the primer extension and strand-displacement reaction catalyzed by pol beta.
# A stepwise description of the 1536-well assay is shown in next Table. Three microliters of reagents (buffer in column 3 and 4 as negative control and 10 nM Pol beta in columns 1, 2, and 5-48) was dispensed into 1,536-well black solid-bottomed plate. Compounds (23 nL) were transferred via Kalypsys pin tool equipped with 1536-pin array (10 nL slotted pins, V&P Scientific, San Diego, CA). The plates were incubated for 15 min at room temperature, and 1 uL substrate (50 nM final concentration) were added to start the reaction and immediately read at 0 min read on Viewlux reader. The plate were further incubated for 10 min at room temperature, and then read on Viewlux again. Throughout the screen, reagent bottle and all liquid lines were chilled and made light-tight to minimize reagent degradation. All screening operations were performed on a fully integrated robotic system (Kalypsys, San Diego, CA) containing one RX-130 and two RX-90 anthropomorphic robotic arms (Staubli, Duncan, SC). Library plates were screened starting from the lowest and proceeding to the highest concentration, and a double-dipping step of the highest concentration was required to access higher concentrations of compounds. Vehicle-only plates, with DMSO being pin-transferred to the entire column 5-48 compound area, were inserted uniformly at the beginning and the end of each library in order to monitor for and record any shifts in the background, which can be affected by reagent dispensers or loss in enzyme activity overtime. Screening data were corrected, normalized, and concentration-effect relationships were derived by using publicly-available curve fitting algorithms developed in-house (http://ncgc.nih.gov/pub/openhts). A four parameter Hill equation was fitted to the concentration-response data by minimizing the residual error between the modeled and observed responses.
# % is scaled to controls: 0 for no effect and ±100 for the full control effect; potency is read from the fitted curve at half-maximal effect.
Structure (SMILES),"activity change, negative = inhibition",Potency
c1nnnn1CCn1cnnn1,inactive: 8.96%,–
CC(C)C(=O)NC(Sc1ccccc1)C(Cl)(Cl)Cl (stereo not drawn),inactive: 26.3%,–
O=P(Nc1nccs1)(c1ccccc1)c1ccccc1,inactive: -28.8%,–
Nc1ccc([As](=O)(O)c2ccc([N+](=O)[O-])cc2)cc1,inactive: 0.976%,–
C(Cc1nn[nH]n1)Cc1nn[nH]n1,inactive: 13.6%,–
O=C(OC1CN2CCC1CC2)c1cccc(Cl)c1 (stereo not drawn),inactive: -17.2%,–
O=[N+]([O-])c1ccc(O)c(/C=N/Nc2ccc([N+](=O)[O-])cc2[N+](=O)[O-])c1,inactive: 20%,–
CC(=O)NC(SC(=S)N(C)C)C(Cl)(Cl)Cl (stereo not drawn),inactive: -2.39%,–
O=[N+]([O-])c1ncn(CCn2cnc([N+](=O)[O-])n2)n1,inactive: 11.6%,–
O=[As](O)(c1ccccc1)c1ccc(O)cc1,inactive: -15.4%,–
O=P(Nc1nc2ccccc2s1)(c1ccccc1)c1ccccc1,inactive: 21.7%,–
C[C@H]1OP(=O)(Oc2ccccc2)[C@H](O)[C@H](O)[C@H]1N=[N+]=[N-] (stereo partly drawn),inactive: 1.45%,–
O=P(Nc1ccccn1)(c1ccc(Br)cc1)c1ccc(Br)cc1,inactive: -13.1%,–
CN(C)C1(CNC(=O)c2ccc(Cl)c(S(N)(=O)=O)c2)CCCCC1,inactive: 10.2%,–
Cc1ccccc1OP(=O)(Nc1ccccn1)Oc1ccccc1C,inactive: 11.2%,–
CN(C)C(=O)Oc1noc2ccccc12,inactive: 8.63%,–
O=c1c2cc([N+](=O)[O-])ccc2[nH]c2c([N+](=O)[O-])cc([N+](=O)[O-])cc12,inactive: -3.84%,–
COC(=O)c1cc2c(s1)N=C(c1ccccc1)N(C)P2(=O)N1CCOCC1 (stereo not drawn),inactive: 33.5%,–
CC(=O)NC(SC(=S)N(CC(C)C)CC(C)C)C(Cl)(Cl)Cl (stereo not drawn),inactive: 16.6%,–
Cc1ccc(OP(=O)(Nc2ccccn2)Oc2ccc(C)cc2)cc1,inactive: -2.94%,–
CN(C(=O)Cc1ccc(Cl)c(Cl)c1)[C@@H]1CCCC[C@@H]1N1CCCC1,inactive: 20.1% [at 57.1 µM],–
O=C(OC1CN2CCC1CC2)c1ccccc1 (stereo not drawn),inactive: 18.2%,–
CCC(=O)N1C2C3N(C(=O)CC)C1C1N(C(=O)CC)C(C(N1C(=O)CC)N3C(=O)CC)N2C(=O)CC,inactive: 16.2%,–

Structure (SMILES),"activity change, negative = inhibition",Potency
CCNC(=S)/N=C(\N)N[N+](=O)[O-],inactive: 52.5%,–
O=C(NC1CCS(=O)(=O)C1)NP(=S)(Oc1ccccc1)Oc1ccccc1 (stereo not drawn),inactive: 23%,–
c1ccc(-c2nn[nH]n2)c(-c2nn[nH]n2)c1,inactive: 2.61%,–
Cc1ccc(NP(=O)(Oc2cccc(C)c2)Oc2cccc(C)c2)nc1,inactive: 3.61%,–
CCOC(=O)NC(Sc1ccccc1)C(Cl)(Cl)Cl (stereo not drawn),inactive: 17.8%,–
CC(=O)Nc1ccc([As](=O)(O)O)c(O)c1,inactive: 9.14%,–
CC(=O)c1ccc(N2CC2c2ccncc2)cc1 (stereo not drawn),inactive: 1.87%,–
C[C@@H]1C=CCP(=O)(Oc2ccccc2)O1 (stereo partly drawn),inactive: -5.34%,–
C[C@H]1OP(=O)(Oc2ccccc2)C[C@@H]2O[C@@H]21 (stereo partly drawn),inactive: 1.89%,–
CC(C)(C)C(=O)NC(Sc1ccccc1)C(Cl)(Cl)Cl (stereo not drawn),–,active: 79.4 µM
O=P1(Nc2nc3ccc(Cl)cc3s2)COc2ccccc2O1 (stereo not drawn),inactive: -25.2%,–
CCOc1ccc(C2=NCC(CBr)S2)cc1 (stereo not drawn),inactive: -0.739%,–
CC(C)CC(=O)NC(Sc1ccc(Cl)cc1)C(Cl)(Cl)Cl (stereo not drawn),inactive: 26.7%,–
Nc1cc(N)c2nonc2c1[N+](=O)[O-],inactive: -29.9%,–
Oc1ccccc1CNc1ccccn1,inactive: -24.7%,–
Cc1c2non([O-])c-2c(C)[n+](=O)[n+]1[O-],inactive: 33.1%,–
O=C(NC(Sc1ccncn1)C(Cl)(Cl)Cl)c1ccccc1 (stereo not drawn),inactive: 61.5%,–
COc1ccccc1OP(=O)(Nc1ccc(C)cn1)Oc1ccccc1OC,inactive: 4.71%,–
Cc1ccc(OP(=O)(Nc2nccs2)Oc2ccc(C)cc2)cc1,inactive: -18.7%,–
Clc1ccc(Cl)c(NC2=NCC(CBr)S2)c1 (stereo not drawn),inactive: 2.54%,–
CN1CCCC(OC(=O)C(c2ccccc2)c2ccccc2)C1 (stereo not drawn),inactive: -0.222%,–
NC(=O)c1cc([N+](=O)[O-])cc([N+](=O)[O-])c1N,inactive: 14%,–
Cc1ccc(N/C(=N/P(=O)(N2CCOCC2)N2CCOCC2)N2CCOCC2)cc1,inactive: 89.4%,–

Structure (SMILES),"activity change, negative = inhibition",Potency
CCN(N=Nc1nonc1N)c1nonc1N,inactive: -6.42%,–
Nc1cccc2ccc([As](=O)(O)O)cc12,–,active: 22.4 µM
CCOP(=O)(Nc1ccccc1)OCC,–,inactive
Cc1cc(SC(NC(=O)c2ccc(F)cc2)C(Cl)(Cl)Cl)ncn1 (stereo not drawn),inactive: 15.8%,–
CN(C(=O)Cc1ccc(Cl)c(Cl)c1)[C@H]1CCCC[C@@H]1N1CCCC1,–,inactive
O=C(O)c1ccccc1[As](=O)(O)O,inactive: -11.8%,–
CC(=O)Nc1ccc([As](=O)(O)O)cc1,inactive: -16.5%,–
O=P(Nc1nc2ccc(Cl)cc2s1)(c1ccccc1)c1ccccc1,inactive: 7.26%,–
O=[N+]([O-])c1cccc(NC2=NCC(CBr)S2)c1 (stereo not drawn),inactive: 2.4%,–
O=C(O)CNc1ccc([As](=O)(O)O)cc1,inactive: 7.18%,–
CC(C)(C)C(=O)NC(Sc1ccncn1)C(Cl)(Cl)Cl (stereo not drawn),inactive: 0.0044%,–
O=[N+]([O-])c1ncn(CCn2ncnc2[N+](=O)[O-])n1,inactive: 35%,–
O=C(Nc1cc([As](=O)(O)O)ccc1O)c1ccccc1,inactive: -1.58%,–
CC(C)=N/N=C(\N)N[N+](=O)[O-],inactive: -18.7%,–
CN(C)C(=O)OCCc1n(C)cc[n+]1C,inactive: -8.5%,–
CC1CCN(C(=O)Oc2c(Cl)cc(Cl)c3cccnc23)CC1,inactive: -0.7%,–
Nc1ccc([As](=O)(O)c2ccc(N)cc2)cc1,inactive: 7.91%,–
CCN(/C(=N/P(=O)(N1CCOCC1)N1CCOCC1)N1CCOCC1)c1ccc(OC)cc1,inactive: -0.129%,–
O=[N+]([O-])c1cccc2n[nH]nc12,inactive: 25.3%,–
CC(=O)N1C2C3N(C(C)=O)C1C1N(C(C)=O)C(C(N1C(C)=O)N3C(C)=O)N2C(C)=O,inactive: 31.7%,–
Cc1ccc(NP(=O)(Oc2ccccc2)Oc2ccccc2)nc1,inactive: 14.3%,–
CCc1nc2c(n1)c1c(non1O)c1c2no[n+]1[O-],inactive: 0.0982%,–

# From PubChem BioAssay AID485314 (National Center for Advancing Translational Sciences (NCATS), 2010)
